According to patent publication US9796764B2, “Cyclotide genes in the fabaceae plant family” (The University of Queensland, priority 2011, dated 2017):

Assay: Haemolytic activity assay
Format: cell-based
Settings: washed human red blood cells; % of maximum lysis (1% Triton X-100); read-out: haemolytic dose necessary to lyse 50% of the RBCs (HD50)
Protocol: Serially diluted peptide solutions were incubated with washed human red blood cells. Following incubation, the supernatant was transferred before the UV absorbance was measured. The amount of haemolysis was calculated as the percentage of maximum lysis (1% Triton X-100 control) after adjusting for minimum lysis (PBS control). Synthetic melittin was used for comparison. The haemolytic dose necessary to lyse 50% of the RBCs (HD50) was calculated using the regression constant from the linear portion of the haemolytic titration curve (Graphpad Prism software).

Work on `CC[C@H](C)[C@H](NC(=O)CN)C(=O)NCC(=O)N[C@@H](C)C(=O)N[C@H](C(=O)N[C@@H](CC(C)C)C(=O)N[C@@H](CCCCN)C(=O)N[C@H](C(=O)N[C@@H](CC(C)C)C(=O)N[C@H](C(=O)N[C@H](C(=O)NCC(=O)N[C@@H](CC(C)C)C(=O)N1CCC[C@H]1C(=O)N[C@@H](C)C(=O)N[C@@H](CC(C)C)C(=O)N[C@H](C(=O)N[C@@H](CO)C(=O)N[C@@H](Cc1c[nH]c2ccccc12)C(=O)N[C@H](C(=O)N[C@@H](CCCCN)C(=O)N[C@@H](CCCNC(=N)N)C(=O)N[C@@H](CCCCN)C(=O)N[C@@H](CCCNC(=N)N)C(=O)N[C@@H](CCC(N)=O)C(=O)N[C@@H](CCC(N)=O)C(N)=O)[C@@H](C)CC)[C@@H](C)CC)[C@@H](C)O)[C@@H](C)O)C(C)C)C(C)C` [melittin, reference compound] yielded an HC50 of 1400 nM.
